One compound from ChEMBL document CHEMBL1134074, “Identification of novel potent hydroxamic acid inhibitors of peptidyl deformylase and the importance of the hydroxamic acid functionality on inhibition” (Bioorg Med Chem Lett, 2001) can be followed below.

The IC50 is the concentration needed to halve the response being measured. High values mean weaker potency, low ones greater potency.

The target in this assay is T1, Peptide deformylase (Staphylococcus aureus subsp. aureus Mu50, UniProt P68825).
T1 sequence (P68825 whole entry): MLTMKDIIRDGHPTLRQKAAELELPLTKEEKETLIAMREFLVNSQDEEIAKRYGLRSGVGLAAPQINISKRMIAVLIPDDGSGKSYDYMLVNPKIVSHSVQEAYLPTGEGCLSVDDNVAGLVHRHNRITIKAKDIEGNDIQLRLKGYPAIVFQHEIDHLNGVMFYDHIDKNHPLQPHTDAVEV
Briefly: Inhibition of Peptidyl deformylase (PDF).

Consider `O=C(NO)C(NCc1cccc(C(F)(F)F)c1)c1cccc2ccccc12` (stereo unspecified), for which the IC50 was determined as 46 nM.
